Laboratory results taken from patent US12098214B2, “Combination therapies for treating cancer” (ALX Oncology Inc., priority 2021, dated 2024).

Test system: MC38 m/h HER2 tumors
Test: MC38 m/h HER2 colon tumor model in mice
Assay type: in vivo, mouse
Settings: C57BL/6 mice, IP; DRUG A 30 mg/kg 2q10d, anti-PD-L1 antibody 1 mg/kg 3q5d, trastuzumab 30 mg/kg 3q5d; FIG. 1
Excerpt: MC38 mouse/human HER2-expressing cells (“MC38 m/h HER2 cells”) were generated by infecting MC38 murine colon adenocarcinoma cells with a lentivirus vector encoding a chimera of mouse and human HER2 transmembrane and extracellular domains.
Prior to implantation, a master cell bank of each cell line was generated to assure that cells used in subsequent experiments were of the same passage number. […] When tumor size reached an average of 65-69 mm^3 for MC38 m/h HER2 tumors, the animals were randomized into 8 groups of 10 mice. Each group was assigned to a treatment group outlined in Table A below.
Tumor volumes and body weights were recorded two or three times per week. […] Statistical analysis and p values were calculated using GraphPad Prism Software.

## trastuzumab: anti-HER2 antibody
  effect on tumor growth / tumor growth inhibition: no effect on tumor growth
